## Apparent affinities of Ab-14 variants for a coronavirus HR2 peptide

Reference: Li et al. 2023, doi:10.1038/s41467-023-39022-2. File: FLAb, binding data.

The target is the same throughout: PDVDLGDISGINAS, from the HR2 region of SARS-CoV-2 spike.

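Phage display of a naive human antibody library on the peptide gave the parent. This is the validation round: designs drawn from the data on random variants, tested in the same kind of assay. Their group label is 14L_En_HC (En: ensemble of fine-tuned language models; HC: hill climbing; a sequence that several methods proposed may carry one label only). The assay is AlphaSeq: two haploid yeast populations carry antibody and antigen on their surface. After mating in shaken culture at 30 °C for 16 h, diploids were selected and their barcode pairs sequenced. Read counts were normalised to the haploid input and turned into Kd by a linear fit to BCL2-family pairs of known affinity, for each replicate. There are six technical replicates.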

The variants keep the heavy chain, the linker and the frameworks of Ab-14 (scFv order VH, the linker GGGGSGGGGSGGGGS, VL).
VH: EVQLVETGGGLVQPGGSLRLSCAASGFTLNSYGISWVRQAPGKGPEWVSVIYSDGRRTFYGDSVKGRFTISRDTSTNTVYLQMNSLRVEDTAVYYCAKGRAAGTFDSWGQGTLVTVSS
VL: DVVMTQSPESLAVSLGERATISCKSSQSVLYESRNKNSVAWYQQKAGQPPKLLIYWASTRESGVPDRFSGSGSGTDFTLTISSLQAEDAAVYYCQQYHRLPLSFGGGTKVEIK

Variants are written as CDR1, CDR2 and CDR3 of the light chain (limits as in the source). Parent: KSSQSVLYESRNKNSVA, WASTRES, QQYHRLPLS. Values are log10 of the apparent Kd in nM; lower means stronger binding. Where no diploid with the target was found in that replicate, the entry reads "nd": below detection, most likely a poor binder, though not proof of it. The authors averaged sequences with at least three values out of six and counted those with two or fewer as poor binders. Background: pairings of all light chain designs with three empty control strains gave a value in 4% of cases (median 2.64, 5th percentile 1.59). Values in that range, when seen in few replicates, are hard to tell from nonspecific mating. For each scFv, signals with the empty controls are counted beside the result. The parent sequence was in this pool as ten entries: three were never detected, three once, and four in most replicates, with averages from 0.34 to 2.37. The range of this assay differs from that of the first round, and the authors advise against merging the two.

With TLGQVTMQLSRNKNSVA / DASTSED / QQYDRLPLS the result was 1.25, 0.46, 1.11, 1.01, 1.71, 2.76 (controls 0 of 18).
With KVNQLMNIEQMNSKSVA / HTSTREN / QQYHRLPLS the result was 2.04, 0.57, 0.92, 0.96, 0.66, 1.09 (controls 1 of 18).
With KISYQYRFEQLSSNNIA / EVVTRLK / QQYHRLPLS the result was 1.03, 2.21, 0.95, 1.10, 1.17, 0.97 (controls 0 of 18).
With KIYEMTGYESRNADSIA / DNSTRGR / QQYHRLPLS the result was 1.44, 1.24, 0.89, 1.27, 0.99, 1.22 (controls 0 of 18).
With KIMQSLNYESFNKNSVA / GQETREQ / QSYHRLPLS the result was 1.62, nd, nd, nd, nd, nd (controls 1 of 18).
With KISMLYNYESTNKNSIA / EMETRES / QHYHRLPLS the result was nd, nd, nd, nd, nd, nd (controls 0 of 18).
With TLTQSVYMESHNKNSVA / DLSTRGS / QQYHRLPLS the result was 0.34, -0.01, -0.05, -0.28, -0.13, -0.01 (controls 0 of 18).
With ALSQSMDMTSRNMNSVA / DLSTREN / QQYHRLPLS the result was 0.75, 0.64, 0.83, 0.74, 1.01, 1.49 (controls 1 of 18).
With KIGHGLTTESRARNSVA / QTETRVS / QHYHRLPLS the result was nd, 4.50, nd, 2.15, nd, 2.79 (controls 3 of 18).
With IVSQSVLGGSRNINSVA / QTSEREY / QQYDRLPLS the result was 0.55, 0.48, 0.62, 0.51, 0.32, 0.75 (controls 2 of 18).
With KLPLATMQQSVSKNNVA / ELSTRGS / QQYHRLPLS the result was 0.81, 0.49, 0.47, 0.33, 0.63, 0.76 (controls 1 of 18).
With KISMMYRYESQNKNSIA / EMSRREN / QQYHRLPLS the result was 0.23, -0.15, 0.20, 0.03, 0.05, 0.14 (controls 1 of 18).
With KLSNSVNFFGHAINSVA / EMETREN / QQYDRLPLS the result was 0.72, 0.49, 0.36, 0.28, 0.66, 0.89 (controls 0 of 18).
With TISQSAQQESHNKNSVA / DLSVRGN / QQYDRLPLS the result was nd, nd, nd, nd, nd, nd (controls 0 of 18).
With KIGSGTNGEKFESNSVA / QTSTREE / QQYHRLPLS the result was 0.37, 0.11, 0.54, 0.48, 0.56, 0.42 (controls 0 of 18).
With HFSQVTMYGSWNKNSVA / QTSTREE / QQYDRLPLS the result was 2.26, nd, nd, nd, nd, nd (controls 0 of 18).
With IFSQTVMYESTMRNNVA / QTSTRES / QQYDRLPLS the result was 0.50, 0.92, 0.41, 0.60, 0.42, 0.66 (controls 1 of 18).
With MLSDLVKMGSRNNNSVA / DNSTRGS / QQYDRLPLS the result was nd, nd, 2.81, 2.36, 3.24, nd (controls 0 of 18).
With KLGAATRFESSNKASIA / DNSTREE / QQYHRLPLS the result was 0.61, 0.95, 0.48, 0.42, 0.37, 0.44 (controls 0 of 18).
With KLSVSWLFESIEHNSVA / ERSTREQ / QDYNRLPLS the result was 1.02, 0.75, 0.67, 0.47, 0.56, 1.10 (controls 0 of 18).
With ALGDVTRMESNKKNSIA / DMSNRES / QQYDRLPLS the result was 1.18, 1.55, 2.70, 2.07, 1.55, 1.69 (controls 1 of 18).
With KISMMYRFEQTSSNNIA / EMTTRAE / QSYHRLPLS the result was 1.52, 0.63, 0.86, 0.55, 1.13, 0.92 (controls 1 of 18).
With IISQVDAYESRNKNSIA / DQSTRGY / QQYDRLPLS the result was 0.67, 0.31, 0.67, 0.39, 0.37, 0.34 (controls 1 of 18).
With KISQNMGETQKNKHSVA / EVSLVPS / QQYWRLPLS the result was nd, nd, nd, 0.95, nd, 1.74 (controls 1 of 18).
With SLMQVGGYESNNHNSIA / DLRTRLS / QQYHRLPLS the result was 0.30, 0.42, 0.19, 0.50, 0.24, 0.29 (controls 2 of 18).
With KLGAATRFESSNKDSIA / NNSTREE / QQYHRLPLS the result was 0.80, 0.86, 0.58, 0.45, 0.76, 0.72 (controls 2 of 18).
With SLMQVGGYEMNAHNSIA / DLRTRES / QQYHRLPLS the result was 0.45, 0.51, 0.71, 0.55, 0.38, 0.71 (controls 0 of 18).
With TISTSALYESTNKNSVA / ELSTRGS / QQYERLPLS the result was 0.90, 0.85, 0.48, 0.74, 0.85, 0.70 (controls 2 of 18).
With TISQSTYWESFNKNNVA / QTSTREE / QDYDRLPLS the result was 1.86, nd, nd, 2.42, nd, 3.01 (controls 2 of 18).
With KISQLVNFLGKNKNSVA / QMSTREV / QQYDRLPLS the result was 0.95, 1.37, 0.78, 0.46, 0.19, 0.91 (controls 0 of 18).
With TISQSAHMESHNKDNVA / DLNTRGS / QQYDRLPLS the result was 0.25, 0.66, -0.19, -0.28, 0.27, 0.14 (controls 0 of 18).
With SISMSMAFLSRNKNSVA / ENSTRES / QQYHRLPLL the result was 1.64, 0.88, 1.18, 0.75, 1.14, 0.97 (controls 1 of 18).
With TLTQVQGMESHNTNSVA / DLSTRGS / QQYHRLPLS the result was 0.30, -0.07, 0.08, -0.19, -0.02, 0.00 (controls 1 of 18).
With KLYMTTGYESRNKDSIA / DNSTRGR / QQYHRLPLS the result was 1.84, 1.26, 1.18, 1.66, 1.77, 1.97 (controls 0 of 18).
With NISQMFHMETKNVNNVA / QTSTRES / QDYHRLPLS the result was 0.41, 0.34, 0.31, 0.26, 0.23, 0.36 (controls 1 of 18).
With MFSQLTYTGSRARNAVA / QASTRVN / QQYHHLPLI the result was 2.05, 1.28, 1.26, 1.13, 1.90, 1.21 (controls 1 of 18).
With TIGQMINGESRNRNSVA / QASTRES / QSYDRLPLS the result was 0.82, 1.02, 0.69, 0.74, 0.76, 1.02 (controls 3 of 18).
With IISQSMIYESATHNSIA / QTSTREE / QQYHHLPLS the result was 0.48, 0.56, 0.27, 0.38, 0.26, 0.78 (controls 0 of 18).
With KLSVSYLFEQLEKNSIA / ENSTREK / QHYHRLPLS the result was 3.09, nd, 2.03, 3.23, 2.85, nd (controls 2 of 18).
With KISMLVNFLGKNKNSVA / QMSTRES / QQYDRLPLS the result was 1.30, 1.35, 0.89, 1.09, 0.84, 1.02 (controls 1 of 18).
With KVSQSINVGSKNKNSLA / EMSTREF / QDYHRLPLS the result was -0.17, 0.58, 0.65, -0.19, 0.33, 0.71 (controls 0 of 18).
With MISDLTMYGSRNVNSVA / DLSTRGS / QQYFRLPLS the result was 0.27, 0.24, -0.06, -0.03, 0.67, 0.46 (controls 1 of 18).
With TISQSFLMENQFKNSVA / QASTREH / QCYDRLPLS the result was 1.33, 1.12, 1.42, 1.46, 1.01, 1.70 (controls 0 of 18).
With KLSQSVRMESFYKNSVA / ENSTREA / QDYDRLPLS the result was nd, nd, nd, nd, 3.25, nd (controls 0 of 18).
With KITYQYRFEQLSKNNIA / EVVTRLK / QQYHRLPLS the result was nd, nd, nd, nd, nd, nd (controls 0 of 18).